## Measured melting point values of organic chemicals

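The numbers are reported measurements, compiled and curated for the OPERA QSAR suite. One number stands for a compound and property, with no spread given. Conditions of the individual experiments are not part of the data. The measured form (salt, isomer or mixture) is not always the one drawn. Some upstream entries may be estimates or bounds without being marked so.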

Melting points are in °C.
The databases behind each value are named after "via".

- O=[N+]([O-])c1cc2cccc3ccc4cccc1c4c32: MP 191 °C (via PubChem)
- O=C(O)CCC1NC(=O)NC1=O (centres undefined): MP 170 °C (via OCHEM)
- CC(=O)Nc1ccc(O)c(S(=O)(=O)Cl)c1: MP 165 °C (via OCHEM)
- Cc1ccn(NC=O)n1: MP 125 °C (via OCHEM)
- Nc1cc(F)ccc1C(F)(F)F: MP 30.5 °C (via OCHEM)
- Cn1c(NN)nc2ccccc2c1=O: MP 151 °C (via OCHEM)
- CN(C)Cc1c(O)ccc2ccccc12: MP 74 °C (via OCHEM)
- COC(=O)c1ccc(COc2ccccc2C=O)cc1: MP 91 °C (via OCHEM)
- Brc1ccc(-n2cnnn2)cc1: MP 181 °C (via OCHEM)
- O=C(O)c1scnc1Cl: MP 246 °C (via OCHEM)
- CC(C)CNS(=O)(=O)c1ccc(C(=O)O)cc1: MP 239 °C (via OCHEM)
- O=C(CCl)N1c2ccccc2CCc2ccccc21: MP 97 °C (via OCHEM)
- CC(C)(C)/C([O-])=C/C(=O)C(F)(F)C(F)(F)C(F)(F)F.CC(C)(C)/C([O-])=C/C(=O)C(F)(F)C(F)(F)C(F)(F)F.CC(C)(C)/C([O-])=C/C(=O)C(F)(F)C(F)(F)C(F)(F)F.[Pr+3]: MP 217 °C (via ChemicalBook)
- COc1cc2c(cc1C=O)OC(C)C2 (centres undefined): MP 79 °C (via OCHEM)
- Cc1cc([N+](=O)[O-])ccc1NC(=O)CCl: MP 119 °C (via OCHEM)
- C=CC(=O)OCC(O)COCCCCOCC(O)COC(=O)C=C (centres undefined): MP -58 °C (via eChemPortal)
- CCOc1ccc(NC(C)=O)cc1N: MP 126.1 °C (via PubChem)
- CCOC(=O)c1ccc(-n2c(C)nc3ccccc3c2=O)cc1: MP 174 °C (via OCHEM)
- CC(=O)c1cn(C)nc1C: MP 73 °C (via OCHEM)
- O=C1Nc2ccc(S(=O)(=O)Cl)cc2C1(Cl)Cl: MP 135 °C (via OCHEM)
- O=S(=O)(Cl)CCc1ccccc1: MP 31 °C (via OCHEM)
- N=C1CCCN1Cc1[nH]c(=O)[nH]c(=O)c1Cl: MP 245 °C (via PubChem)
- Clc1ccc(-c2ccccc2Cl)cc1Cl: MP 60 °C (via QSARDB)
- Nc1cccc(N2C(=O)CNC2=O)c1: MP 157 °C (via OCHEM)
- COC(=O)c1cc(Cl)c(N)cc1OC: MP 125 °C (via OCHEM)
- COc1c(Cl)cc(C(=O)O)cc1Cl: MP 153 °C (via OCHEM)
- O=C(O)COc1ccccc1-c1ccccc1: MP 103 °C (via OCHEM)
- COC(=O)c1ccc2c(c1)CCN2: MP 75 °C (via OCHEM)
- NC(=O)Nc1cccc(N)c1: MP 126 °C (via OCHEM)
- CCN(CC)S(=O)(=O)c1cccc(C(=O)NN)c1: MP 134 °C (via OCHEM)
- c1ccc(-c2cn[nH]c2)cc1: MP 230 °C (via OCHEM)
- CNc1nc(CC(C)=O)ns1: MP 299 °C (via OCHEM)
- O=C(O)C1(c2ccc(Br)cc2)CCCC1: MP 177 °C (via OCHEM)
- O=C(O)c1cc(=O)n(-c2ccccc2)[nH]1: MP 257 °C (via OCHEM)
- CC[N+](C)(CC)CC(C)OCC[N+](C)(C)C.[I-].[I-] (centres undefined): MP 179 °C (via OCHEM)
- CC(=O)Oc1ccc(C)cc1: MP -14.41 °C (via eChemPortal)
- CCC(C)n1nccc1N (centres undefined): MP 31 °C (via OCHEM)
- O=C(O)c1ccc(N2C(=O)CSC2=S)cc1: MP 282 °C (via OCHEM)
- O=C(O)/C=C/c1ccc([N+](=O)[O-])o1: MP 231 °C (via OCHEM)
- CCOC(=O)C(C(C)=O)C1CCS(=O)(=O)C1 (centres undefined): MP 75.5 °C (via OCHEM)
- O=c1cc(-c2ccccc2)c2cc(Cl)c(O)cc2o1: MP 261 °C (via OCHEM)
- CC(=O)c1ccc(NS(=O)(=O)c2ccc(Cl)cc2)cc1: MP 133 °C (via OCHEM)
- O=C(O)C=Cc1cn(-c2ccccc2)nc1-c1ccc(F)cc1: MP 230 °C (via OCHEM)

Excerpt, the opening 3 entries:

| compound | MP (°C) | via |
|---|---|---|
| O=[N+]([O-])c1cc2cccc3ccc4cccc1c4c32 | 191 | PubChem |
| O=C(O)CCC1NC(=O)NC1=O (centres undefined) | 170 | OCHEM |
| CC(=O)Nc1ccc(O)c(S(=O)(=O)Cl)c1 | 165 | OCHEM |

Source: data files of OPERA 2.9 (Mansouri et al.), github.com/kmansouri/OPERA.